Earlier results as cited in US8392166B2.

Target: Thrombin (Homo sapiens, UniProt P00734)
Details: for Ki: Thrombin inhibitors, FIG. 1

| SMILES | Ki [nM] | biological activity (experimentally determined, with respect to the reference compound) |
| --- | --- | --- |
| CN1C(c2ccc(C(=N)N)cc2)C2C(=O)N(Cc3ccc4c(c3)OCO4)C(=O)C2C1(C)C (stereo not drawn) | 500 | improved |
| CN1C(c2ccc(C(=N)N)cc2)C2CN(Cc3ccc4c(c3)OCO4)C(=O)C2C1(C)C (stereo not drawn) | 200 |  |
